Bioassay records (PubChem)
PglD DTNB: blocks C. jejuni PglD acetyltransferase activity; purified PglD enzyme, DTNB colorimetric CoA detection; inhibition, % at 12.5 µM; 360,000 tested, 0.098% active; AID 602405; in the data active = inhibition above about 16%, passing the limit was not always enough
Tn6 DDE FP: disrupts Tn6 cyclic peptide binding to fibrin D-Dimer-E complex. P02675. Fibrin DD(E) TRITC-Tn6 fluorescence polarization displacement. inhibition, % at 8.3 µM. 370,000 tested, 0.21% active. AID 720509;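 active = inhibition above a per-campaign cutoff: mean of compounds within control limits plus 3 SD, cut at about 15% in these data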
DDE Tn7 FP inh: inhibitors of Tn7 peptide binding to human fibrin DD(E) | FP displacement of FITC-Tn7 peptide from fibrin DD(E); 0% = median of compound wells per plate | inhibition, % at 8.3 µM | 370,000 tested, 0.13% active | AID 720508;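 active = inhibition above the mean of compounds falling within the control limits plus 3 SD of them, cut at about 14% in these data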
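Assay system: human fibrin DD(E). Input: DD(E) 2 µM final. Medium: Tris buffer with calcium and detergent, pH 7.8. Compound dosing: single point at 8.3 µM. Timing: 10 min plus 3 h, room temperature. Technique: fluorescence polarization of the labelled Tn7 tracer. Read-out: percent inhibition. Replicates: singlicate testing.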
Yeast UUG start: alters start codon recognition fidelity in yeast. 350,000 tested, 0.13% active. activity score, % at 18.7 µM. S. cerevisiae UUG-firefly luciferase reporter, luminescence/redox ratio;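 active = replicate mean at a twofold rise or more, about +100% in these data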;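 also: firefly luciferase made from a UUG start codon reports start codon fidelity; reporter light over untreated wells divided by growth signal over untreated wells; some hits fall short of that in this replicate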
Tn6 DDE ctr: DD(E)-Tn6 binding inhibition, counter-screen; shares compounds with Tn6 DDE FP; Fibrin DD(E), TRITC-Tn6 fluorescence polarization displacement; 0% = median of compound wells, not DMSO; inhibition, % at 8.3 µM; 680 tested, 2% active; AID 720621;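 active = inhibition above the mean of test compounds lying between the control limits plus 3 SD of those, cut at about 14% in these data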
Tn6 DDE conf: DD(E)-Tn6 binding inhibition, FP confirmation; shares compounds with Tn6 DDE FP; FP displacement of TRITC-Tn6 peptide from DD(E); 0% = per-plate median of test wells; inhibition, % at 8.3 µM; 680 tested, 10% active; AID 720631;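 active = inhibition above the mean of compounds lying within the control limits plus 3 SD, cut at about 16% in these data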
Of the large screens only hits and unclear results are named; the others gave an inactive call (follow-up assays come after a bar, where they were run). Compounds with a hit are over-represented: about 0.45% of the library has one in this group of screens.

Cc1noc(C)c1S(=O)(=O)N(C)C[C@@H]1OCCCC[C@@H](C)Oc2ccc(NC(=O)c3ccccc3)cc2C(=O)N([C@@H](C)CO)C[C@H]1C	none (no result: Tn6 DDE FP, DDE Tn7 FP inh)
O=C(CSc1nnc(SCc2cccc3ccccc23)s1)Nc1ccc(S(=O)(=O)Nc2nccs2)cc1	Tn6 DDE FP 21.7 (no result: PglD DTNB, Yeast UUG start) | Tn6 DDE ctr inactive | Tn6 DDE conf 16.6
Cc1ccc(S(=O)(=O)Nc2ccc3c(c2)C(=O)N([C@@H](C)CO)C[C@H](C)[C@@H](CN(C)C(=O)C2CCCCC2)OCCCC[C@@H](C)O3)cc1	none (no result: Tn6 DDE FP, DDE Tn7 FP inh)
C[C@@]12C(C[C@H](O)[C@@]34C[C@@H](CCC13)[C@@H](CO)C4=O)[C@](C)(C(=O)O)CC[C@@H]2O (stereo not given in full)	Tn6 DDE FP 21.4 | Tn6 DDE ctr inactive | Tn6 DDE conf inactive
CN1CCS/C1=C/C=C1/SC(=S)N(Cc2ccccc2)C1=O	Tn6 DDE FP 38.0 (no result: PglD DTNB, Yeast UUG start) | Tn6 DDE ctr inactive | Tn6 DDE conf 15.8
CCCCN1C(=O)/C(=C/C=C2\SCCN2C)SC1=S	none (no result: PglD DTNB, Yeast UUG start)
C[C@@H]1CN([C@@H](C)CO)C(=O)c2cccc(NC(=O)Nc3ccc(C(F)(F)F)cc3)c2O[C@@H]1CN(C)C	none (no result: Tn6 DDE FP, DDE Tn7 FP inh)
COc1cc(OC)c(C2C(C(=O)N3CCOCC3)=C(C)NC3=C2C(=O)CC(C)(C)C3)cc1OC (stereo not given)	Tn6 DDE FP 17.4 | Tn6 DDE ctr inactive | Tn6 DDE conf inactive
COc1ccc(C2C(C(=O)N3CCOCC3)=C(C)NC3=C2C(=O)CC(C)(C)C3)cc1O (stereo not given)	none (no result: PglD DTNB, Yeast UUG start)
O=C(C1CC1)N1CCCCN2[C@@H](CO)[C@@H](c3ccc(-c4ccncc4)cc3)[C@@H]2C1	none (no result: Tn6 DDE FP, DDE Tn7 FP inh)
COC(=O)c1ccccc1C(=O)c1cccc2ccccc12	none
COC(=O)c1c[nH]c(=O)c2ccccc12	Tn6 DDE FP 15.6 (no result: PglD DTNB, Yeast UUG start) | Tn6 DDE ctr inactive | Tn6 DDE conf inactive
CO[C@H]1CN(C)C(=O)c2ccc(NC(=O)Cc3ccccc3)cc2OC[C@@H](C)N(C)C[C@H]1C	none (no result: Tn6 DDE FP, DDE Tn7 FP inh)
COc1ccc(S(=O)(=O)Nc2ccc3c(c2)[C@@H]2C[C@@H](CC(=O)O)O[C@@H](CO)[C@@H]2O3)cc1	none (no result: Tn6 DDE FP, DDE Tn7 FP inh)
COc1cccc(CNC(=O)C2=C(C)C(=O)OC23CCC(C)CC3)c1 (stereo not given)	Tn6 DDE FP 19.1 (no result: PglD DTNB, Yeast UUG start) | Tn6 DDE ctr inactive | Tn6 DDE conf inactive
C[C@@H]1CCCCO[C@@H](CN(C)C(=O)C2CCCCC2)[C@H](C)CN([C@@H](C)CO)C(=O)c2cc(NS(=O)(=O)c3ccc(Cl)cc3)ccc2O1	none (no result: Tn6 DDE FP, DDE Tn7 FP inh)
CCn1c(CSc2nnc(-c3ccncc3)n2CCOC)nc2cc(C(=O)O)ccc21	Tn6 DDE FP 19.1 | Tn6 DDE ctr inactive | Tn6 DDE conf 46.7
CCn1c(CSc2n[nH]c(N)n2)nc2cc(C(=O)O)ccc21	Tn6 DDE FP 28.5 (no result: PglD DTNB, Yeast UUG start) | Tn6 DDE ctr inactive | Tn6 DDE conf 22.1
Cc1ccc(S(=O)(=O)Nc2cccc3c2O[C@@H](CN(C)S(=O)(=O)c2ccc(F)cc2)[C@@H](C)CN([C@H](C)CO)C3=O)cc1	none (no result: Tn6 DDE FP, DDE Tn7 FP inh)
C[C@@H]1CN([C@H](C)CO)C(=O)c2cc(-c3cccnc3)cnc2O[C@H]1CN(C)C(=O)c1ccccc1F	none (no result: Tn6 DDE FP, DDE Tn7 FP inh)
Cc1cc(C(=O)Nc2ccc(S(=O)(=O)N3CCCC3)cc2)cs1	Tn6 DDE FP 16.3 | Tn6 DDE ctr inactive | Tn6 DDE conf inactive
Cn1cnc(S(=O)(=O)N[C@@H]2CC[C@H](CC(=O)Nc3ccc(-c4ccccc4)cc3)O[C@@H]2CO)c1	none (no result: Tn6 DDE FP, DDE Tn7 FP inh)
COc1ccc(NC(=O)N[C@H]2CC[C@H](CCn3cc(C4(O)CCCC4)nn3)O[C@@H]2CO)cc1	none (no result: Tn6 DDE FP, DDE Tn7 FP inh)
Cc1cc(C(=O)N/N=C/c2ccco2)c2ccccc2n1	none (no result: PglD DTNB, Yeast UUG start)
Cc1cc(N/N=C/c2ccco2)c2ccccc2n1	Tn6 DDE FP 17.0 (no result: PglD DTNB, Yeast UUG start) | Tn6 DDE ctr inactive | Tn6 DDE conf inactive
c1ccc(-c2ccc(C3CCCN3)cc2)cc1 (stereo not given)	Tn6 DDE FP 16.0 | Tn6 DDE ctr inactive | Tn6 DDE conf inactive
CCc1nc2ccc(C(=O)NCCOc3ccc(OC)cc3)cn2c1N(C)C(=O)C1CCCCC1	Tn6 DDE FP 15.8 | Tn6 DDE ctr inactive | Tn6 DDE conf inactive
CCc1nc2ccc(C(=O)NCCOc3ccc(OC)cc3)cn2c1N(CCN(C)C)CC1CC1	none
